# Test results: patent US20250205197A1
# Assay: Mouse pharmacokinetic (PK) evaluation of drug metabolism to psilocin
# Assay type: in vivo, C57Bl/6 mice
structure (smiles),measurement,setting,value
CN(C)CCc1c[nH]c2cccc(OC(=O)OCc3ccccc3)c12 [B(II)],detection of the derivative in plasma,"mice, oral 1 mg/kg",neither B(II) nor E(VI) were detected in plasma
same,"psilocin levels in treated mice, B(II) compared with E(VI)","oral dosing, Tables 2 and 3",higher psilocin levels
